{"sequences": {"note": "By UniProt entry, the sequences of proteins in these tests, tags left out.", "UniProt P11712, whole entry": "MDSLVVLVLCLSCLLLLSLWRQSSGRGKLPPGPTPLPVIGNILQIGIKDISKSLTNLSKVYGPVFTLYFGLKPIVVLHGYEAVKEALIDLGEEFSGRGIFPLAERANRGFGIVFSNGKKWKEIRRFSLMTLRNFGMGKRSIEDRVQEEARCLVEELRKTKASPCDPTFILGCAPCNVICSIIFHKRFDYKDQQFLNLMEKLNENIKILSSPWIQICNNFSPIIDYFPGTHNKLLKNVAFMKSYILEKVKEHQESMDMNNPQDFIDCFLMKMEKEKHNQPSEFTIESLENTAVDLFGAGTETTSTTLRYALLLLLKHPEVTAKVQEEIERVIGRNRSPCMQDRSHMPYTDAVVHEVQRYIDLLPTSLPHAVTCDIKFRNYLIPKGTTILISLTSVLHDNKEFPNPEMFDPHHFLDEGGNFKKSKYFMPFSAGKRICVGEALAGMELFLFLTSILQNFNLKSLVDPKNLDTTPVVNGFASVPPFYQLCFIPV", "UniProt Q8TDC3, whole entry": "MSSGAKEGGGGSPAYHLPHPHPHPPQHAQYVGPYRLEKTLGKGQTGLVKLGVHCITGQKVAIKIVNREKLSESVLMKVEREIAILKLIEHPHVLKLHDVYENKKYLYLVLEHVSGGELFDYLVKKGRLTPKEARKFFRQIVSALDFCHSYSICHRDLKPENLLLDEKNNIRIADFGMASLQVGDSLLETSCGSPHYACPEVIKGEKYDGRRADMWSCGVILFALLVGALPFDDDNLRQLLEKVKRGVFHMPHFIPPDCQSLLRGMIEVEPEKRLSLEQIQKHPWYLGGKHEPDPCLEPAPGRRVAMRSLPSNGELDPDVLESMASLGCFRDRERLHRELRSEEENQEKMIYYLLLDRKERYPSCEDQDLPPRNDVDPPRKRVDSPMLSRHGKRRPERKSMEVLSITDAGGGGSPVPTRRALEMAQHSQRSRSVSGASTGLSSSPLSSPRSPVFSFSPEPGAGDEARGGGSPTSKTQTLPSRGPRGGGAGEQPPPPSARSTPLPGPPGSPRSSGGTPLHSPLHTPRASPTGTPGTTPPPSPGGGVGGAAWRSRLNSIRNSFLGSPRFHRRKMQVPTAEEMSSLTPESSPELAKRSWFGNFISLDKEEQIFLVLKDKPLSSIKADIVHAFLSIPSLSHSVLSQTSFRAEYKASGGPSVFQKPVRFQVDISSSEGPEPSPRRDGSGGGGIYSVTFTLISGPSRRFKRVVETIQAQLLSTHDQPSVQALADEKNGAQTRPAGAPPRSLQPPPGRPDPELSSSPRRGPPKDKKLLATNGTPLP", "UniProt Q13554, whole entry": "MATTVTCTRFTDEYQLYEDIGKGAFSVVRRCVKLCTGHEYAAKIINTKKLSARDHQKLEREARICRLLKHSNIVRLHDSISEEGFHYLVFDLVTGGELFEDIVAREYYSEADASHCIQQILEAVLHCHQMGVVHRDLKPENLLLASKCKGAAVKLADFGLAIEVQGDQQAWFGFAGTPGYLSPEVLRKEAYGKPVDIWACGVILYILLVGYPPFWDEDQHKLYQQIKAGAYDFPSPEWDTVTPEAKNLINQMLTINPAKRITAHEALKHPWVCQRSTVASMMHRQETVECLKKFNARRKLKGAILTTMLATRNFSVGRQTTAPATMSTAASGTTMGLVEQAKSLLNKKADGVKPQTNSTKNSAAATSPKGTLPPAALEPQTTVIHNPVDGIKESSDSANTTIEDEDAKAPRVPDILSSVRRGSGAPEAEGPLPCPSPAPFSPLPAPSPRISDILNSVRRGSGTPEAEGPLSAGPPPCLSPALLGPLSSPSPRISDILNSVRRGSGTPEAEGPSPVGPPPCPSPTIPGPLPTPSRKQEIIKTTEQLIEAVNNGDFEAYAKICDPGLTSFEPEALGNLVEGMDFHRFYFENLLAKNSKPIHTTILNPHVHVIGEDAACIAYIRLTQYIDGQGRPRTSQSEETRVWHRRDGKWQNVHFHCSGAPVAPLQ", "UniProt P48729, whole entry": "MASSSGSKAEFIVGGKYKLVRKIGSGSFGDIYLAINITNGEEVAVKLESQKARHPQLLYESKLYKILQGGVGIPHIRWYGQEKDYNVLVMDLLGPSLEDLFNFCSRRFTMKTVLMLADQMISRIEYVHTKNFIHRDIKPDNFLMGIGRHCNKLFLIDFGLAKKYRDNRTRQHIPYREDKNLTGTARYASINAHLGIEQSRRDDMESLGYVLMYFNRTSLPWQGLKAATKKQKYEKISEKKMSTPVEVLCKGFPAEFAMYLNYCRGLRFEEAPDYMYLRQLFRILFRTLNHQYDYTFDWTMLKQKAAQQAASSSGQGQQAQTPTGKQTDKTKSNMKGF", "UniProt O43293, whole entry": "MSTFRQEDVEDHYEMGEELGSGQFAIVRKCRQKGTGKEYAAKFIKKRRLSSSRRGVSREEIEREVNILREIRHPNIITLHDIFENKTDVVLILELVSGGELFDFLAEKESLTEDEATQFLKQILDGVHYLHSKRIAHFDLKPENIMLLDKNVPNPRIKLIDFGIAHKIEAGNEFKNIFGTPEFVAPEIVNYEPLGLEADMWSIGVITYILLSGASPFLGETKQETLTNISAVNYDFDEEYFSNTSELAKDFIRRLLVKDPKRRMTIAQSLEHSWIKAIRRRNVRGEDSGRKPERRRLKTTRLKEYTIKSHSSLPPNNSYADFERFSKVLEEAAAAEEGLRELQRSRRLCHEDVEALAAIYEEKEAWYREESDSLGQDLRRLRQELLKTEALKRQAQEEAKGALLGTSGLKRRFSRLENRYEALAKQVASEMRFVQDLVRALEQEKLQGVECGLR", "UniProt Q8NE63, whole entry": "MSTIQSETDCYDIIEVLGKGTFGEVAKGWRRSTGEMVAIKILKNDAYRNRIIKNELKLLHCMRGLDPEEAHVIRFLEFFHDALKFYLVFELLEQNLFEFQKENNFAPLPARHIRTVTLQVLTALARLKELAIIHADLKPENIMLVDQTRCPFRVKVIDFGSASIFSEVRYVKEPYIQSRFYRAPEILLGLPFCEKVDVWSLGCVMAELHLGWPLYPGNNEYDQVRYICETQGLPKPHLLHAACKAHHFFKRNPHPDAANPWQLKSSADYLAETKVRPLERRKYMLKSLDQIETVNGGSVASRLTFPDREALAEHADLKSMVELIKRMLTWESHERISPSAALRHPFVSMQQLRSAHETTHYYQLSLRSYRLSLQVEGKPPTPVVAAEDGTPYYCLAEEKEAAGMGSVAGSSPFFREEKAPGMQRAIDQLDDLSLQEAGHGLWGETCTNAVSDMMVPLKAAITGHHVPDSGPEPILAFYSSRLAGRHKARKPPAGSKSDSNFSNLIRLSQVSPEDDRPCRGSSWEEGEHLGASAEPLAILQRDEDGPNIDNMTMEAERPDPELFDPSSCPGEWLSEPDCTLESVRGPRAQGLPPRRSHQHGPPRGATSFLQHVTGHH", "UniProt O14920, whole entry": "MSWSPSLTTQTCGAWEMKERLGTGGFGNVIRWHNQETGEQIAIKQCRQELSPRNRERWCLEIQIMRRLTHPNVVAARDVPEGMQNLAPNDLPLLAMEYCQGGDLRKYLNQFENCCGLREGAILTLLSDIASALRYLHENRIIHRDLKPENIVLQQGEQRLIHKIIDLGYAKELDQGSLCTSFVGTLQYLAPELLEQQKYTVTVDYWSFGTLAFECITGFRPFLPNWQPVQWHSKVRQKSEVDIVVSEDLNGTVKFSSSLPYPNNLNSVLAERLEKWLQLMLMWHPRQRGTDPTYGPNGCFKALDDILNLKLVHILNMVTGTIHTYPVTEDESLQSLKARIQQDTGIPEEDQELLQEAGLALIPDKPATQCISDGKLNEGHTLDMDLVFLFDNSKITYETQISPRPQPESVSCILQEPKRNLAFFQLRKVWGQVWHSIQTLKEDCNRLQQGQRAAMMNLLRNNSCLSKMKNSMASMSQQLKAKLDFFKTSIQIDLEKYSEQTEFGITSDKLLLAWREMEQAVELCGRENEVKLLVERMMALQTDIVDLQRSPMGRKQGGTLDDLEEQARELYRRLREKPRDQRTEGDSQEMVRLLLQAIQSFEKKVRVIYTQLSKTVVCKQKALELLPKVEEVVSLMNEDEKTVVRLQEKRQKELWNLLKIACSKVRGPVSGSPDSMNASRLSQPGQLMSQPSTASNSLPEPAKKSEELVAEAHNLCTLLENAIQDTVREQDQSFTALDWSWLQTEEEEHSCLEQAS", "UniProt O15264, whole entry": "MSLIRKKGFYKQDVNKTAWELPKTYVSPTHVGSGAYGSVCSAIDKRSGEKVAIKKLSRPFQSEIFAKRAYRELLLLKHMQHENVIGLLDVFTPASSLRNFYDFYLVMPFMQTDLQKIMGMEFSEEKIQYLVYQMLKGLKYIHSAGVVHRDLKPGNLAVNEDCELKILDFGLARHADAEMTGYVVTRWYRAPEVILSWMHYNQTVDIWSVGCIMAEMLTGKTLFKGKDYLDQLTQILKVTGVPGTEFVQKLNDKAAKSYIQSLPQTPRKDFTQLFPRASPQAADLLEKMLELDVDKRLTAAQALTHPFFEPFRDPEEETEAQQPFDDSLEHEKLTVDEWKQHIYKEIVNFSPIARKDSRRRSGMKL", "UniProt O75116, whole entry": "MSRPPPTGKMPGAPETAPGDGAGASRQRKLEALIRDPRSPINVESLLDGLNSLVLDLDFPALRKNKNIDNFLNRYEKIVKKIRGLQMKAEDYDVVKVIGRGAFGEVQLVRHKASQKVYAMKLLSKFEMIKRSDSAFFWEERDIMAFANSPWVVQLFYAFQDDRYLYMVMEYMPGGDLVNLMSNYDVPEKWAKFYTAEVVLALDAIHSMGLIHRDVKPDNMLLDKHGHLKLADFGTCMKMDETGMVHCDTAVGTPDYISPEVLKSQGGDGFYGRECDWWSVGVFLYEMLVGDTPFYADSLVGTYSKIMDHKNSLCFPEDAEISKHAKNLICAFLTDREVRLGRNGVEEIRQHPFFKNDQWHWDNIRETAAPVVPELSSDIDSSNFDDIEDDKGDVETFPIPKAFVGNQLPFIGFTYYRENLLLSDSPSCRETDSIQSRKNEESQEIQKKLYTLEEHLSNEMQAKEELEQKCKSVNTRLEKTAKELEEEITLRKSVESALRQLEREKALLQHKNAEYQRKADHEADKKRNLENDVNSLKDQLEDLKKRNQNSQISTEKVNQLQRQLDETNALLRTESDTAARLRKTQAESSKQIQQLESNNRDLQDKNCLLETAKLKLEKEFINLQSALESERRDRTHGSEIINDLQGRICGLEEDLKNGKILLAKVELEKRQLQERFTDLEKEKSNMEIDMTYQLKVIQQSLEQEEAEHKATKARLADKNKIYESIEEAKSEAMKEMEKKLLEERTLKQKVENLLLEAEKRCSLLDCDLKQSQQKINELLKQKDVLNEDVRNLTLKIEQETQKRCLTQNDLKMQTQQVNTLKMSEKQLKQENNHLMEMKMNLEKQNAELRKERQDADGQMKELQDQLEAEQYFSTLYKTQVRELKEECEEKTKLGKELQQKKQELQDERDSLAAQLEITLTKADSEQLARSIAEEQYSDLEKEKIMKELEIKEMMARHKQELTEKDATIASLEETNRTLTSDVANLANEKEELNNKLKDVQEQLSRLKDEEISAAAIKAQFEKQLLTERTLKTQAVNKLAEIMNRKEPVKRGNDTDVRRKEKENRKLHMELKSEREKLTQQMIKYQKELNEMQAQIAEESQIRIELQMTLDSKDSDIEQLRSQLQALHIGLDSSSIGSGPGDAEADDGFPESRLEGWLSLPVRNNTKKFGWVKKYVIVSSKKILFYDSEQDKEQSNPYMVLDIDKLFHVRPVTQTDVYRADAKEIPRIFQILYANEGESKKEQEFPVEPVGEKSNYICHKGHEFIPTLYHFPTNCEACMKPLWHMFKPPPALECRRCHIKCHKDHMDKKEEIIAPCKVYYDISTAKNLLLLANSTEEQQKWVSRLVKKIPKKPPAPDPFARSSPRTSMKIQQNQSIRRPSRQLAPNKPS", "UniProt P51812, whole entry": "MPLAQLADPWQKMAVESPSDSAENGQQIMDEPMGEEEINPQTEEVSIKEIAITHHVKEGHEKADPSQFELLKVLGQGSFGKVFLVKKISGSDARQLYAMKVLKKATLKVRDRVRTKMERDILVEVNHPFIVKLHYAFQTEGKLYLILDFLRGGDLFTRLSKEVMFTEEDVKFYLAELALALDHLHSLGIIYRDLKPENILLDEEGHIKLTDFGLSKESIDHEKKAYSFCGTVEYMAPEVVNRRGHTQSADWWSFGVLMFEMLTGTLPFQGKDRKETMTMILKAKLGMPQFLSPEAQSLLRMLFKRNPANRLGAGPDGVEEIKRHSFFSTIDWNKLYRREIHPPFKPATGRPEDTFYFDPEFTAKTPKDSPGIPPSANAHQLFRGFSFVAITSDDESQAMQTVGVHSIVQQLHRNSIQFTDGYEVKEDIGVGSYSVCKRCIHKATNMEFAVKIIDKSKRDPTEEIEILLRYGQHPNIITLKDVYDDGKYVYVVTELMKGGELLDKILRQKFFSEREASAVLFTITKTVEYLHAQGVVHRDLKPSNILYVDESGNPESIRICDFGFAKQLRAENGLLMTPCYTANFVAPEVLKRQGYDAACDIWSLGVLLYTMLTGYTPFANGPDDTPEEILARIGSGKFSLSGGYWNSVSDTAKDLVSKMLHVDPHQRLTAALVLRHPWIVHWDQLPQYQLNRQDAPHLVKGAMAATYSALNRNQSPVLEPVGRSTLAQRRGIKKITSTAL"}, "source": "patent US20260384438A1", "about": "“PYRROLOPYRIMIDINE CARBOXAMIDES” (published 2026)", "key": {"CYP2C9": {"target": "CYP2C9 (Homo sapiens, UniProt P11712)", "experiment": "CYP inhibition, CYP2C9", "settings": "read-out: CYP2C9 inhibition IC50; HLM, diclofenac 10 μM"}, "ADRBK1 (GRK2)": {"target": "ADRBK1 (GRK2) (Homo sapiens, UniProt P25098)", "experiment": "Kinase profiling, Z-Lyte", "settings": "1 μM, KmATP"}, "AURKC (Aurora C)": {"target": "AURKC (Aurora C) (Homo sapiens, UniProt Q9UQB9)", "experiment": "Kinase profiling, Z-Lyte", "settings": "1 μM, KmATP"}, "BRSK1 (SAD1)": {"target": "BRSK1 (SAD1) (Homo sapiens, UniProt Q8TDC3)", "experiment": "Kinase profiling, Z-Lyte", "settings": "1 μM, KmATP"}, "BTK": {"target": "BTK (Homo sapiens, UniProt Q06187)", "experiment": "Kinase profiling, Z-Lyte", "settings": "1 μM, KmATP"}, "CAMK2B": {"target": "CAMK2B (Homo sapiens, UniProt Q13554)", "experiment": "Kinase profiling, Z-Lyte", "settings": "1 μM, KmATP"}, "CDC42 BPA (MRCKA)": {"target": "CDC42 BPA (MRCKA) (Homo sapiens, UniProt Q5VT25)", "experiment": "Kinase profiling, Z-Lyte", "settings": "1 μM, KmATP"}, "CDC42 BPB (MRCKB)": {"target": "CDC42 BPB (MRCKB) (Homo sapiens, UniProt Q9Y5S2)", "experiment": "Kinase profiling, Z-Lyte", "settings": "1 μM, KmATP"}, "CDC42BPG": {"target": "CDC42BPG (Homo sapiens, UniProt Q6DT37)", "experiment": "Kinase profiling, Z-Lyte", "settings": "1 μM, KmATP"}, "CSNK1A1": {"target": "CSNK1A1 (Homo sapiens, UniProt P48729)", "experiment": "Kinase profiling, Z-Lyte", "settings": "1 μM, KmATP"}, "CSNK1A1L": {"target": "CSNK1A1L (Homo sapiens, UniProt Q8N752)", "experiment": "Kinase profiling, Z-Lyte", "settings": "1 μM, KmATP"}, "CSNK1G3 (CK1gamma3)": {"target": "CSNK1G3 (CK1gamma3) (Homo sapiens, UniProt Q9Y6M4)", "experiment": "Kinase profiling, Z-Lyte", "settings": "1 μM, KmATP"}, "CSNK2A2 (CK2alpha2)": {"target": "CSNK2A2 (CK2alpha2) (Homo sapiens, UniProt P19784)", "experiment": "Kinase profiling, Z-Lyte", "settings": "1 μM, KmATP"}, "DAPK3 (ZIPK)": {"target": "DAPK3 (ZIPK) (Homo sapiens, UniProt O43293)", "experiment": "Kinase profiling, Z-Lyte", "settings": "1 μM, KmATP"}, "DCAMKL2 (DCK2)": {"target": "DCAMKL2 (DCK2) (Homo sapiens, UniProt Q8N568)", "experiment": "Kinase profiling, Z-Lyte", "settings": "1 μM, KmATP"}, "FGR": {"target": "FGR (Homo sapiens, UniProt P09769)", "experiment": "Kinase profiling, Z-Lyte"}, "FRK (PTK5)": {"target": "FRK (PTK5) (Homo sapiens, UniProt P42685)", "experiment": "Kinase profiling, Z-Lyte", "settings": "1 μM, KmATP"}, "HIPK4": {"target": "HIPK4 (Homo sapiens, UniProt Q8NE63)", "experiment": "Kinase profiling, Z-Lyte", "settings": "1 μM, KmATP"}, "IKBKB (IKKbeta)": {"target": "IKBKB (IKKbeta) (Homo sapiens, UniProt O14920)", "experiment": "Kinase profiling, Z-Lyte", "settings": "1 μM, KmATP"}, "JAK3": {"target": "JAK3 (Homo sapiens, UniProt P52333)", "experiment": "Kinase profiling, Z-Lyte", "settings": "1 μM, KmATP"}, "MAP4K5 (KHS1)": {"target": "MAP4K5 (KHS1) (Homo sapiens, UniProt Q9Y4K4)", "experiment": "Kinase profiling, Z-Lyte", "settings": "1 μM, KmATP"}, "MAPK1 (ERK2)": {"target": "MAPK1 (ERK2) (Homo sapiens, UniProt P28482)", "experiment": "Kinase profiling, Z-Lyte", "settings": "1 μM, KmATP"}, "MAPK13 (p38 delta)": {"target": "MAPK13 (p38 delta) (Homo sapiens, UniProt O15264)", "experiment": "Kinase profiling, Z-Lyte", "settings": "1 μM, KmATP"}, "MAPKAPK2": {"target": "MAPKAPK2 (Homo sapiens, UniProt P49137)", "experiment": "Kinase profiling, Z-Lyte", "settings": "1 μM, KmATP"}, "MAPKAPK3": {"target": "MAPKAPK3 (Homo sapiens, UniProt Q16644)", "experiment": "Kinase profiling, Z-Lyte", "settings": "1 μM, KmATP"}, "MET (cMet)": {"target": "MET (cMet) (Homo sapiens, UniProt P08581)", "experiment": "Kinase profiling, Z-Lyte", "settings": "1 μM, KmATP"}, "NEK4": {"target": "NEK4 (Homo sapiens, UniProt P51957)", "experiment": "Kinase profiling, Z-Lyte", "settings": "1 μM, KmATP"}, "PIM1": {"target": "PIM1 (Homo sapiens, UniProt P11309)", "experiment": "Kinase profiling, Z-Lyte", "settings": "1 μM, KmATP"}, "PRKCB2 (PKC Beta II)": {"target": "PRKCB2 (PKC Beta II) (Homo sapiens, UniProt P05771)", "experiment": "Kinase profiling, Z-Lyte", "settings": "1 μM, KmATP"}, "PRKG1": {"target": "PRKG1 (Homo sapiens, UniProt Q13976)", "experiment": "Kinase profiling, Z-Lyte", "settings": "1 μM, KmATP"}, "PTK2 (FAK)": {"target": "PTK2 (FAK) (Homo sapiens, UniProt Q05397)", "experiment": "Kinase profiling, Z-Lyte", "settings": "1 μM, KmATP"}, "ROCK2": {"target": "ROCK2 (Homo sapiens, UniProt O75116)", "experiment": "Kinase profiling, Z-Lyte", "settings": "1 μM, KmATP"}, "RPS6KA1 (RSK1)": {"target": "RPS6KA1 (RSK1) (Homo sapiens, UniProt Q15418)", "experiment": "Kinase profiling, Z-Lyte", "settings": "1 μM, KmATP"}, "RPS6KA3 (RSK2)": {"target": "RPS6KA3 (RSK2) (Homo sapiens, UniProt P51812)", "experiment": "Kinase profiling, Z-Lyte", "settings": "1 μM, KmATP"}, "RPS6KB2": {"target": "RPS6KB2 (Homo sapiens, UniProt Q9UBS0)", "experiment": "Kinase profiling, Z-Lyte", "settings": "1 μM, KmATP"}, "SGKL (SGK3)": {"target": "SGKL (SGK3) (Homo sapiens, UniProt Q96BR1)", "experiment": "Kinase profiling, Z-Lyte", "settings": "1 μM, KmATP"}, "SNF1LK2": {"target": "SNF1LK2 (Homo sapiens, UniProt Q9H0K1)", "experiment": "Kinase profiling, Z-Lyte", "settings": "1 μM, KmATP"}, "STK22B (TSSK2)": {"target": "STK22B (TSSK2) (Homo sapiens, UniProt Q96PF2)", "experiment": "Kinase profiling, Z-Lyte", "settings": "1 μM, KmATP"}, "TXK": {"target": "TXK (Homo sapiens, UniProt P42681)", "experiment": "Kinase profiling, Z-Lyte", "settings": "1 μM, KmATP"}}}
{"molecule": "Cc1nc(C(F)(F)F)c2c(C(N)=O)c(N)n(-c3c(C)ccc(O)c3C)c2n1", "note": "(single isomer, unassigned)", "values": [{"measurement": "IC50", "setting": "CYP2C9", "value": "> 30", "unit": "µM"}, {"measurement": "MEAN INHIBITION", "setting": "ADRBK1 (GRK2)", "value": 2.161, "unit": "%"}, {"measurement": "MEAN INHIBITION", "setting": "AURKC (Aurora C)", "value": "−0.353", "unit": "%"}, {"measurement": "MEAN INHIBITION", "setting": "BRSK1 (SAD1)", "value": 0.568, "unit": "%"}, {"measurement": "MEAN INHIBITION", "setting": "BTK", "value": 16.116, "unit": "%"}, {"measurement": "MEAN INHIBITION", "setting": "CAMK2B", "value": 2.475, "unit": "%"}, {"measurement": "MEAN INHIBITION", "setting": "CDC42 BPA (MRCKA)", "value": "−3.181", "unit": "%"}, {"measurement": "MEAN INHIBITION", "setting": "CDC42 BPB (MRCKB)", "value": "−1.544", "unit": "%"}, {"measurement": "MEAN INHIBITION", "setting": "CDC42BPG", "value": 1.141, "unit": "%"}, {"measurement": "MEAN INHIBITION", "setting": "CSNK1A1", "value": 4.723, "unit": "%"}, {"measurement": "MEAN INHIBITION", "setting": "CSNK1A1L", "value": 3.325, "unit": "%"}, {"measurement": "MEAN INHIBITION", "setting": "CSNK1G3 (CK1gamma3)", "value": 1.739, "unit": "%"}, {"measurement": "MEAN INHIBITION", "setting": "CSNK2A2 (CK2alpha2)", "value": 3.983, "unit": "%"}, {"measurement": "MEAN INHIBITION", "setting": "DAPK3 (ZIPK)", "value": 2.416, "unit": "%"}, {"measurement": "MEAN INHIBITION", "setting": "DCAMKL2 (DCK2)", "value": 4.498, "unit": "%"}, {"measurement": "MEAN INHIBITION", "setting": "FGR; 1 μM, KmATP", "value": 73.456, "unit": "%"}, {"measurement": "IC50", "setting": "FGR; 10-point CR, ATP 10.000 μM", "value": 0.201, "unit": "µM"}, {"measurement": "MEAN INHIBITION", "setting": "FRK (PTK5)", "value": 67.392, "unit": "%"}, {"measurement": "MEAN INHIBITION", "setting": "HIPK4", "value": 1.188, "unit": "%"}, {"measurement": "MEAN INHIBITION", "setting": "IKBKB (IKKbeta)", "value": 3.452, "unit": "%"}, {"measurement": "MEAN INHIBITION", "setting": "JAK3", "value": 2.710, "unit": "%"}, {"measurement": "MEAN INHIBITION", "setting": "MAP4K5 (KHS1)", "value": "−1.141", "unit": "%"}, {"measurement": "MEAN INHIBITION", "setting": "MAPK1 (ERK2)", "value": 1.904, "unit": "%"}, {"measurement": "MEAN INHIBITION", "setting": "MAPK13 (p38 delta)", "value": 3.793, "unit": "%"}, {"measurement": "MEAN INHIBITION", "setting": "MAPKAPK2", "value": 1.297, "unit": "%"}, {"measurement": "MEAN INHIBITION", "setting": "MAPKAPK3", "value": "−0.628", "unit": "%"}, {"measurement": "MEAN INHIBITION", "setting": "MET (cMet)", "value": "−1.374", "unit": "%"}, {"measurement": "MEAN INHIBITION", "setting": "NEK4", "value": 3.233, "unit": "%"}, {"measurement": "MEAN INHIBITION", "setting": "PIM1", "value": "−1.231", "unit": "%"}, {"measurement": "MEAN INHIBITION", "setting": "PRKCB2 (PKC Beta II)", "value": 5.028, "unit": "%"}, {"measurement": "MEAN INHIBITION", "setting": "PRKG1", "value": 2.575, "unit": "%"}, {"measurement": "MEAN INHIBITION", "setting": "PTK2 (FAK)", "value": 2.177, "unit": "%"}, {"measurement": "MEAN INHIBITION", "setting": "ROCK2", "value": 5.617, "unit": "%"}, {"measurement": "MEAN INHIBITION", "setting": "RPS6KA1 (RSK1)", "value": 10.570, "unit": "%"}, {"measurement": "MEAN INHIBITION", "setting": "RPS6KA3 (RSK2)", "value": 7.084, "unit": "%"}, {"measurement": "MEAN INHIBITION", "setting": "RPS6KB2", "value": 2.179, "unit": "%"}, {"measurement": "MEAN INHIBITION", "setting": "SGKL (SGK3)", "value": "−1.282", "unit": "%"}, {"measurement": "MEAN INHIBITION", "setting": "SNF1LK2", "value": 11.712, "unit": "%"}, {"measurement": "MEAN INHIBITION", "setting": "STK22B (TSSK2)", "value": 4.540, "unit": "%"}, {"measurement": "MEAN INHIBITION", "setting": "TXK", "value": 9.164, "unit": "%"}]}
